Laboratory results published in US6251950A, “Aliphatic propargylamines as cellular rescue agents” (University of Saskatchewan, priority 1998, dated 2001).

Chains of the proteins cited; added tags and fusions are not shown.
UniProt P19643, whole entry: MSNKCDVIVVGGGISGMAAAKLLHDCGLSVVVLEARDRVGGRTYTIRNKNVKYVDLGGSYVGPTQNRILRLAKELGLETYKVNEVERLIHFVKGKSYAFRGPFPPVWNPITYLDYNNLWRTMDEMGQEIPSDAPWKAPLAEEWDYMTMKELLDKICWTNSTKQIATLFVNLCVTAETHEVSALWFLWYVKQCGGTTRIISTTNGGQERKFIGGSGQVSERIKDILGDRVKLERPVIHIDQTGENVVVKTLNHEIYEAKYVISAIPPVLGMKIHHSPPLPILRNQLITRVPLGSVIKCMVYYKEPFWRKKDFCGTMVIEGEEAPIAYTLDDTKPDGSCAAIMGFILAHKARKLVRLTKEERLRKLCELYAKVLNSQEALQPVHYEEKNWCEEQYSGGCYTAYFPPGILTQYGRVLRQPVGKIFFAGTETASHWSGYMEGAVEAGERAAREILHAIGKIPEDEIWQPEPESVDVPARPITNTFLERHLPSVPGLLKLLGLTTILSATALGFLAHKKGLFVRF

Assays:
[1] = molecular target: rat liver mitochondrial monoamine oxidase B (Rattus norvegicus, UniProt P19643); experiment: biochemical; conditions: for Comparison to most effective MAO-B inhibitor in group: in vitro, relative to most effective inhibitor in group
[2] = tested on: rat brain noradrenergic axons and terminals; conditions: in vivo; cited from earlier work

C#CCN(C)[C@H](C)CC [Example R-2BuMP, (R)-N-(2-butyl)-N-methylpropargylamine]
pIC50 [1]: 6.00
Comparison to most effective MAO-B inhibitor in group [1]: 100%

C#CCN(C)[C@@H](C)CC [Example S-2BuMP, (S)-N-(2-butyl)-N-methylpropargylamine]
pIC50 [1]: 5.70
Comparison to most effective MAO-B inhibitor in group [1]: 50%

C#CCN(C)[C@H](C)Cc1ccccc1 [R-deprenyl]
DSP-4-induced degeneration [2]: prevent

pIC50: −log10 of the molar value.
